How the values were obtained:
Format in all cases: in vivo, SD rats
[1] = tested on: p-IκB-α; test: Western blotting of midbrain, MPTP-treated rats: p-IκB-α; conditions: MPTP-intoxicated rats
[2] = tested on: IL-6; test: Western blotting of midbrain, MPTP-treated rats: IL-6
[3] = tested on: iNOS; test: Western blotting of midbrain, MPTP-treated rats: iNOS; conditions: MPTP control rats
[4] = tested on: TNF-α; test: Western blotting of midbrain, MPTP-treated rats: TNF-α

| Structure (SMILES) | expression of p-IκB-α protein higher than sham group [1] [fold] | expression level of IL-6 protein elevated, compared with sham operated rats ([2]; MPTP-intoxicated rats) [fold] | iNOS protein expression level higher than sham group [3] [fold] | elevation in TNF-α protein expression level, compared with sham groups ([4]; MPTP-intoxicated rats) [fold] | increase in IL-6 level attenuated, compared to MPTP groups ([2]; MPTP rats, levodopa 10 mg/kg) [fold] | TNF-α protein activation induced by MPTP declined ([4]; MPTP rats, levodopa 10 mg/kg) [fold] |
| --- | --- | --- | --- | --- | --- | --- |
| CN1CC=C(c2ccccc2)CC1 [MPTP, 1-methyl-4-phenyl-1,2,3,6-tetrahydropyridine] | 4.1 | 6.8 | 8.0 | 1.7 |  |  |
| N[C@@H](Cc1ccc(O)c(O)c1)C(=O)O [Levodopa] |  |  |  |  | 1.6 | 1.7 |

From US11638736B2, “Compositions for preventing or treating diseases or disorders associated with neuro-inflammation, neuro-apoptosis, or neuro- oxidative damage and uses thereof” (priority 2018, dated 2023)
